# Reference: BindingDB's records for PubMed 1930610 (Eli Lilly, 1991)
# The chains behind the UniProt entries cited, without tags or fusion partners.
# UniProt P14842, whole entry: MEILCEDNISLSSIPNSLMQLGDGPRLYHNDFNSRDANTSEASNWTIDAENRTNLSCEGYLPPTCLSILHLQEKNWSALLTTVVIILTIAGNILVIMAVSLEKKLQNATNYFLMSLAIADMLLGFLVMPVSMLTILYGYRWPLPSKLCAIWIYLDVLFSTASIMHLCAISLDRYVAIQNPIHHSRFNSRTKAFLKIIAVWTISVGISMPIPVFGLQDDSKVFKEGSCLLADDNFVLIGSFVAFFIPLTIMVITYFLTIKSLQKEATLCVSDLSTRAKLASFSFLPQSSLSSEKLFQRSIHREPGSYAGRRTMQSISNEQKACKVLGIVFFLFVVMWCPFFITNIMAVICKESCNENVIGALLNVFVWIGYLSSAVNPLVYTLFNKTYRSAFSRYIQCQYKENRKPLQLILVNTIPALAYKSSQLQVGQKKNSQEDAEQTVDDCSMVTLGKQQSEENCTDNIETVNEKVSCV
# Target: 5-hydroxytryptamine receptor 2A (Rattus norvegicus, UniProt P14842)
smiles,measurement,value
CN(C)CCCC1(c2ccc(F)cc2)OCc2cc(C#N)ccc21 (stereo unspecified) [CITALOPRAM HYDROBROMIDE],pKi,5.27

# pKi: −log10 of the molar value. Structures can show the parent of a compound that is named as a salt.
